Measurements taken from ChEMBL document CHEMBL1130280, “2-(1-Naphthyloxy)ethylamines with enhanced affinity for human 5-HT1D beta (h5-HT1B) serotonin receptors” (J Med Chem, 1997).

Protein sequences, listed by entry. Tags and fused reporters are not part of them.
UniProt P28222, whole entry: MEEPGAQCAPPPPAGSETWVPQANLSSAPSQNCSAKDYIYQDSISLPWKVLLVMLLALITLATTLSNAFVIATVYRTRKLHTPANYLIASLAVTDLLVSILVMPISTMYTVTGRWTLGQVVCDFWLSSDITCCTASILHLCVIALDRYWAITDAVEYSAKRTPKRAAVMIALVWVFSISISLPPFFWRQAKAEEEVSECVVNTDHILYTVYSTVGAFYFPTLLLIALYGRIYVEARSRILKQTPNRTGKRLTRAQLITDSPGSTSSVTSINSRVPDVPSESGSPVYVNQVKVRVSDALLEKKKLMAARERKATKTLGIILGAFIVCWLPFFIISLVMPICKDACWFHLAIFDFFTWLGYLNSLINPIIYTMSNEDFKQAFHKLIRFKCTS

Biological target: 5-hydroxytryptamine receptor 1B (Homo sapiens, UniProt P28222)
Assay: Agonist activity to the human recombinant 5-hydroxytryptamine 1B receptor
Assay type: functional
Procedure, shortened: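 CHO Pro 5 cells stably transfected with human recombinant 5-HT1Dβ receptors. Agonism was read as inhibition of cAMP production stimulated by 10 μM forskolin with 0.5 mM IBMX. Compound was added to the culture medium for 30 min at 37 °C. The reaction was stopped with cold ethanolic 5 mM EDTA (2:1 v/v), and extracted cAMP was quantified by enzyme immunoassay, with serotonin as the reference agonist.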

SMILES | Ki
CC(C)NCC(O)COc1cccc2ccccc12 (racemic) [PROPRANOLOL] | > 10 µM
CC(C)NC[C@H](O)COc1cccc2ccccc12 [LEVOPROPRANOLOL] | 4.1 µM
